In US5266600A, “BU-4641V, an antibacterial, antiviral and antitumor antibiotic” (priority 1992, dated 1993):

Legend:
[1] = test system: S. aureus FDA 209P; details: Nutrient agar, pH 7.0, 32° C., 18 hrs, 10^5 cells/ml
[2] = test system: S. aureus Smith
[3] = test system: S. aureus IPM-24 (MRSA)
[4] = test system: S. epidermidis 11-1168
[5] = test system: S. epidermidis 11-1230
[6] = test system: E. faecalis A9808
[7] = test system: E. faecium A24817
[8] = test system: M. luteus PCI 1001
[9] = test system: B. subtilis PCI 219
[10] = test system: E. coli Juhl A15119
[11] = test system: E. coli 255
[12] = test system: K. pneumoniae PCI 602
[13] = test system: P. mirabilis IFO 3849
[14] = test system: P. vulgaris IPM-13
[15] = test system: M. morganii 1510
[16] = test system: M. morganii 1510/9
[17] = test system: P. rettgeri IPM-14
[18] = test system: E. cloacae IPM-12
[19] = test system: S. marcescens IPM-15
[20] = test system: S. marcescens IPM-16
[21] = test system: C. freundii GN7391
[22] = test system: P. aeruginosa A20599
[23] = test system: P. aeruginosa KKA19
[24] = test system: P. aeruginosa IPM-8
[25] = test system: P. aeruginosa IpM-9
[26] = test system: X. maltophilia GN12873
[27] = test system: X. maltophilia No. 661
[28] = test system: P. cepacia No. 651
[29] = test system: P. cepacia A21213
[30] = test system: C. terrigena IFO 12685

CC1=CCC2(C)C(=O)C(O)=C(C(C)CO)C2CC=C(C)C(O)CCC(C)=CCC1 (stereo not drawn) [BU-4641V]
MIC [1]: 25 µg/mL (≈ 62.1 µM) | MIC [2]: 100 µg/mL (≈ 248 µM) | MIC [3]: 100 µg/mL (≈ 248 µM) | MIC [4]: 50 µg/mL (≈ 124 µM) | MIC [5]: 100 µg/mL (≈ 248 µM) | MIC [6]: 100 µg/mL (≈ 248 µM) | MIC [7]: 100 µg/mL (≈ 248 µM) | MIC [8]: 100 µg/mL (≈ 248 µM) | MIC [9]: 100 µg/mL (≈ 248 µM) | MIC [10]: > 100 µg/mL | MIC [11]: > 100 µg/mL | MIC [12]: > 100 µg/mL | MIC [13]: > 100 µg/mL | MIC [14]: > 100 µg/mL | MIC [15]: > 100 µg/mL | MIC [16]: > 100 µg/mL | MIC [17]: > 100 µg/mL | MIC [18]: > 100 µg/mL | MIC [19]: > 100 µg/mL | MIC [20]: > 100 µg/mL | MIC [21]: > 100 µg/mL | MIC [22]: > 100 µg/mL | MIC [23]: > 100 µg/mL | MIC [24]: > 100 µg/mL | MIC [25]: > 100 µg/mL | MIC [26]: > 100 µg/mL | MIC [27]: > 100 µg/mL | MIC [28]: > 100 µg/mL | MIC [29]: > 100 µg/mL | MIC [30]: 12.5 µg/mL (≈ 31.1 µM)

≈ marks a conversion by molar mass, not a printed value.
